# Laboratory results published in US8785486B2, “Imidazo[1,2-A]pyridine derivatives and their use as positive allosteric modulators of mGluR2 receptors” (Janssen Pharmaceuticals, Inc., priority 2007, dated 2014).
# Amino acid sequences for entries named in this document (tags omitted). Residues count along the entry.
# UniProt Q14416, 19-872 limits assumed: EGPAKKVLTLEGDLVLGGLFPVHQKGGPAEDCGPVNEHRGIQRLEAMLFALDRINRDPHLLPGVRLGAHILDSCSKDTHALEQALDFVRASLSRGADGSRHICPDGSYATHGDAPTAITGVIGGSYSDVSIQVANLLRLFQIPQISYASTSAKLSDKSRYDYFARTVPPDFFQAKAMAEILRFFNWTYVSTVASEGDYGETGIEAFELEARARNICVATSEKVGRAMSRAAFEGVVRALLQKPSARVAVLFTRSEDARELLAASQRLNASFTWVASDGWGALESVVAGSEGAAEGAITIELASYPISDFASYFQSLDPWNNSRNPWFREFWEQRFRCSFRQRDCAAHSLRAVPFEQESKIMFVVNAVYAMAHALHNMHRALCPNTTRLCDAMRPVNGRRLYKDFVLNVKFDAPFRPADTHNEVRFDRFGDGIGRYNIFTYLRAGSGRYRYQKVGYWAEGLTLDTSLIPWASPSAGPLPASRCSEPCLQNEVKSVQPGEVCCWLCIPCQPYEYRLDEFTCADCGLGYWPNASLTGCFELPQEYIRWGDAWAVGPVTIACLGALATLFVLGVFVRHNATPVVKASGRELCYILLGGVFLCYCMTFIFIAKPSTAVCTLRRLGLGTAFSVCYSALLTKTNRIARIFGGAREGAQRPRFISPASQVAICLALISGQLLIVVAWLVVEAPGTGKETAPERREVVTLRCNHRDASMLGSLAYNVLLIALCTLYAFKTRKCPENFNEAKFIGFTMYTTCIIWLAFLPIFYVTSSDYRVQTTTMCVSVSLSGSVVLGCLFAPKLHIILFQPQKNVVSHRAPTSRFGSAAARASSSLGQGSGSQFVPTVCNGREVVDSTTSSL
# Biological target: human mGluR2 receptor (Homo sapiens, UniProt Q14416)
# Assay: [35S]GTPγS binding assay (PAM assay) using membranes from cells transfected with the human mGluR2 receptor
# Conditions: membranes of CHO cells with human mGluR2; glutamate at predetermined EC25 concentration; averages of duplicate values of 11-concentration response curves
smiles,measurement,value
N#Cc1c(-c2ccc(NC3CCC(O)CC3)cc2)ccn2c(CC(F)(F)F)cnc12 (stereo not shown),GTPγS - hR2 PAM pEC50,5.87
